From ChEMBL document CHEMBL1133555 (J Med Chem, 2000) come the findings set out here.

Protein sequences, listed by entry. Tags and fused reporters are not part of them.
UniProt P23977, whole entry: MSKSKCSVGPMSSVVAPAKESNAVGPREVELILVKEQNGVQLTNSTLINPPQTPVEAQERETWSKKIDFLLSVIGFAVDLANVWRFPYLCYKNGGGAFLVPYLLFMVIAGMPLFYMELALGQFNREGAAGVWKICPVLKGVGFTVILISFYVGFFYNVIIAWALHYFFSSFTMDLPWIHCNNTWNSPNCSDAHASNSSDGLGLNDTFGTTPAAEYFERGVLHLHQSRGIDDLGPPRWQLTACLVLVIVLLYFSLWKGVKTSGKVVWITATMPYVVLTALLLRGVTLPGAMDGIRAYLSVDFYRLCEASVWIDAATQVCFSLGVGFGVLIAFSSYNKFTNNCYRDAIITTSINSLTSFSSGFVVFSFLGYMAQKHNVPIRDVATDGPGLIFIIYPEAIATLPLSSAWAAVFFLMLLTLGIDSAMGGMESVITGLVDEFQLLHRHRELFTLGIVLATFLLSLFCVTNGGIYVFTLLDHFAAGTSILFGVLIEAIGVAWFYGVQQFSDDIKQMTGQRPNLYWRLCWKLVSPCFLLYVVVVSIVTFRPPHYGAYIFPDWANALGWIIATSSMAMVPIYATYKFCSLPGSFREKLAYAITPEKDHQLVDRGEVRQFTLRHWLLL

Molecules are shown by their SMILES.

For this experiment, the target named is Sodium-dependent dopamine transporter (Rattus norvegicus, UniProt P23977). Kind of experiment: Binding affinity for dopamine transporter (DAT) labeled with [125 I]RTI-55. In a few lines:
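Competition binding assay: DAT and SERT sites labelled with [125I]RTI-55, NET sites labelled with [3H]nisoxetine. Test compounds displace the radioligand from each site. Otherwise run by previously published procedures.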

As a reminder, the Ki is a measure of affinity in units of concentration, obtained from inhibition or displacement. Higher therefore signals weaker binding. `CNC1CC(c2ccc(Cl)c(Cl)c2)c2ccccc21` (stereo unspecified) [INDATRALINE]: the Ki was determined as 1.7 nM.
